{"source": "ChEMBL document CHEMBL1148369", "about": "“Novel S-substituted aminoalkylamino ethanethiols as potential antidotes against sulfur mustard toxicity” (2004)", "system": "Mus musculus", "assay": "LD50 following oral dosing."}
{"smiles": "NCCCNCCSP(=O)(O)O", "values": [{"measurement": "LD50", "result": 1050, "unit": "mg/kg"}]}
